Legend:
PIN1 [1] = molecular target: PIN1 (Arabidopsis thaliana, UniProt Q9C6B8, V51A); experiment: biochemical
PIN1 [2] = molecular target: T1, PIN1 (Arabidopsis thaliana, UniProt Q9C6B8); experiment: biochemical
PIN1 [3] = molecular target: T1, PIN1; conditions: D6PK co-expressed, pH 5.5, 37 °C

The chains behind the UniProt entries cited, without tags or fusion partners.
UniProt Q9C6B8, whole entry V51A: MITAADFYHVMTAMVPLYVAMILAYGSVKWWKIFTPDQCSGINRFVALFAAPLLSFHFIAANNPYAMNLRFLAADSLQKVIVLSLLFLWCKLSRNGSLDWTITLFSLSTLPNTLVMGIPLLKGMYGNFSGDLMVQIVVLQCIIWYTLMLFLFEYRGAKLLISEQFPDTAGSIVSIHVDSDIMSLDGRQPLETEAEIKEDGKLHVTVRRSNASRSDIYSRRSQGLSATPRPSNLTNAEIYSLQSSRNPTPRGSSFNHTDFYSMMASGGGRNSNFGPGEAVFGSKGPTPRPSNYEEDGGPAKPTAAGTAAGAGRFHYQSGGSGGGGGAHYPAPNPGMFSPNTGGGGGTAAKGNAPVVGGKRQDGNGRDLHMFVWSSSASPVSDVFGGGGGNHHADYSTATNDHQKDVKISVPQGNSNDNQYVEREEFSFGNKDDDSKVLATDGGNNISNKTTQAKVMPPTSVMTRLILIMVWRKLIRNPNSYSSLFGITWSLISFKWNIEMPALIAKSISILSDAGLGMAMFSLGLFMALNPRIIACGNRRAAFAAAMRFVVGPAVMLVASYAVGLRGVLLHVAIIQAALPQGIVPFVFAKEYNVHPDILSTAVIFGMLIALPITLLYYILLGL

Kd (PIN1 [1]) [µM] | Compound | Kd (PIN1 [2]) [µM] | relative [3H]IAA retention with 10 μM NPA (PIN1 [3])
1390 ± 160 | O=C(O)Cc1c[nH]c2ccccc12 [IAA] | 83 | –
– | O=C(O)c1ccccc1C(=O)Nc1cccc2ccccc12 [NPA] | ~0.15 | This PIN1-mediated auxin efflux is inhibited by NPA (Fig. 1b,d)
